# Measured affinities in a library of Ab-91 heavy chain variants

Reference: Engelhart et al. 2022, doi:10.1038/s41597-022-01779-4. File: FLAb, binding data.

Target: peptide PDVDLGDISGINAS, taken from heptad repeat 2 (HR2) of SARS-CoV-2 spike.

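The parent was found by panning a naive human phage display library on the peptide. Library AAYL51 holds single substitutions and randomly drawn double and triple substitutions in the CDRs. The assay is AlphaSeq: two haploid yeast populations carry antibody and antigen on their surface. The frequency of each diploid, read from paired DNA barcodes, reflects how well the two displayed proteins bind. A regression on co-assayed BCL2-family reference pairs converts the normalised counts of each replicate to an apparent Kd. The assay was run in three technical replicates.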

Each scFv is VL, three GGGGS repeats, VH, as in the parent Ab-91, and differs from it in the CDRs of the heavy chain only.
VL: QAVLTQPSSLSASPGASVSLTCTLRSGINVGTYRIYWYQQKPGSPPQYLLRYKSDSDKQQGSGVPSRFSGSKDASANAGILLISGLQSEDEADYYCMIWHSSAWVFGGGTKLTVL
VH: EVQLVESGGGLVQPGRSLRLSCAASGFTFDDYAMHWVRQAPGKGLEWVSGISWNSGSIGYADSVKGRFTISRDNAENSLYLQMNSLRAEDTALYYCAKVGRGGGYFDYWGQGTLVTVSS

Variants are written as CDR1, CDR2 and CDR3 of the heavy chain (limits as in the source). Parent: GFTFDDYAMH, GISWNSGSIGYADSVK, VGRGGGYFDY.
This list gathers variants with a substitution at D62 (VH, numbered from residue 1).
Kd is apparent (estimated from mating counts) and averaged on the log scale over replicates with a signal. Smaller is tighter.
"nd" means that the variant was in the library but no mating with the target was seen in any replicate; the authors take this as a sign of poor binding, and no number exists.
In this assay the parent's reference entry averaged 72 nM; its copy inside this library read 7.5 nM.
As a blank, each scFv also met three strains without target: over library AAYL51, 21% of these pairings were detected, typically at 34 µM and seldom below 1.8 µM. The control count says in how many pairings with the empty strains this scFv gave a signal.

- GFTFDDYVMH | GISMNSGSIGYAMSVK | VGRGGGYFDY -> nd (0 of 3 replicates; controls 0 of 9)
- GFTFDDYAMH | GISWNSGSIGYAISVK | VTRGGGKFDY -> nd (0 of 3 replicates; controls 0 of 9)
- GFTFDDYAMH | GISWNSGSIGDARSVK | VGRGGGYFRY -> nd (0 of 3 replicates; controls 0 of 9)
- GFIFDDYAMH | GISWNSGSIGYASSVK | VGRGGGYFDW -> 73 µM (3 of 3 replicates; controls 6 of 9)
- GRTFDDYAMH | GISWNSGSIGYAGSVG | VGRGGGYFDY -> 520 µM (3 of 3 replicates; controls 5 of 9)
- GFPFDDYAMH | GISWLSGSIGYAQSVK | VGRGGGYFDY -> 40 µM (1 of 3 replicates; controls 0 of 9)
- GFTFQDYAMH | GISWNSGSIGYANSVK | VGRGGGYFDY -> 51 nM (3 of 3 replicates; controls 1 of 9)
- GFTFDDKAMH | GISWNSGSIGYAFSVK | VGRGGGYFDY -> 130 µM (1 of 3 replicates; controls 2 of 9)
- GFNFDDYAMH | GISWNCGSIGYAWSVK | VGRGGGYFDY -> 490 nM (1 of 3 replicates; controls 1 of 9)
- GFTFDDYAMH | GISWNSGSIGYAGSVK | VGRGGGYFDS -> 310 nM (3 of 3 replicates; controls 1 of 9)
- GFTFDDYAMH | GISWNSASIGYAISVK | VGRGGGYPDY -> nd (0 of 3 replicates; controls 0 of 9)
- GFTFDDYAMH | GISWNSGSIWYALSVK | VGRGGGYFGY -> 9.4 µM (1 of 3 replicates; controls 0 of 9)
- GFTFDDYAMH | GISWPSGSIGYAWSVK | VKRGGGYFDY -> nd (0 of 3 replicates; controls 1 of 9)
- DFTFDEYAMH | GISWNSGSIGYACSVK | VGRGGGYFDY -> 38 nM (3 of 3 replicates; controls 2 of 9)
- GFTFDDYAMH | GISWNSGSIAYANSVP | VGRGGGYFDY -> nd (0 of 3 replicates; controls 0 of 9)
- FFTFDDYAMH | GISWNTGSIGYAFSVK | VGRGGGYFDY -> nd (0 of 3 replicates; controls 0 of 9)
- GFTFDDYAMH | GISWNSGSIGYAVSVK | VGRGGGYFHS -> nd (0 of 3 replicates; controls 2 of 9)
- GFTPDDVAMH | GISWNSGSIGYAHSVK | VGRGGGYFDY -> 440 nM (1 of 3 replicates; controls 1 of 9)
- GFTFDDYAMH | GISWNSGSEGYALVVK | VGRGGGYFDY -> 620 nM (3 of 3 replicates; controls 4 of 9)
- GFTFDDYAMH | GISWNSGSIGYASSVK | VGRGGGYSDY -> nd (0 of 3 replicates; controls 0 of 9)
- GFTFDDYAMH | GISWNSGSIGYLFSVK | VRRGGGYFDY -> nd (0 of 3 replicates; controls 0 of 9)
- GFTFDDYAFH | GCSWNSGSIGYARSVK | VGRGGGYFDY -> 78 µM (2 of 3 replicates; controls 3 of 9)
- GFTFDDYAMH | GISWNSGSIGYAYSVK | VGRHRGYFDY -> nd (0 of 3 replicates; controls 1 of 9)
- QFTFDDYAMH | GISWNSGSIGYAMSVK | VGRGGGYMDY -> 51 µM (2 of 3 replicates; controls 6 of 9)
- AFTFDDYAMH | RISWNSGSIGYAESVK | VGRGGGYFDY -> 57 µM (1 of 3 replicates; controls 0 of 9)
- GFTFDDYAMH | GISWNSGSIGYACSVK | VGRGGGYFQL -> 14 µM (3 of 3 replicates; controls 3 of 9)
- GFTFDDYAMH | GICWNSGSISYAYSVK | VGRGGGYFDY -> nd (0 of 3 replicates; controls 4 of 9)
- GFTFDDYAMH | GGSWNSGNIGYAYSVK | VGRGGGYFDY -> nd (0 of 3 replicates; controls 0 of 9)
- GFTFDDYAMH | GISFNSGSIGYARSVK | VGRGGGYFDY -> 460 nM (3 of 3 replicates; controls 0 of 9)
- GFTRDDYKMH | GISWNSGSIGYAQSVK | VGRGGGYFDY -> 52 nM (3 of 3 replicates; controls 0 of 9)
- GFTFDDYAMH | GFSWNSGSIGYARSVK | VGRGGGYFDY -> 6.9 µM (3 of 3 replicates; controls 2 of 9)
- GFTFDGYAMH | GISWNSGSIGSAHSVK | VGRGGGYFDY -> 31 µM (2 of 3 replicates; controls 1 of 9)
- GFTFDDYAMH | GISVNSGSIGYAASVK | VGRGGGYFDY -> 450 nM (3 of 3 replicates; controls 2 of 9)
- GFTFDDYAMH | GISWNSRSIGYAGSVK | VGRGGGYFDG -> 410 nM (3 of 3 replicates; controls 5 of 9)
- GSTFDDYAMH | GISWNSGSIGYAQSVK | VGRGGTYFDY -> 4.2 µM (3 of 3 replicates; controls 4 of 9)
- GFTFDDYAMH | GIQWNSQSIGYAASVK | VGRGGGYFDY -> nd (0 of 3 replicates; controls 0 of 9)
- GFTFDDYAMH | FESWNSGSIGYATSVK | VGRGGGYFDY -> nd (0 of 3 replicates; controls 0 of 9)
- GFTFDDYAMH | GASWASGSIGYANSVK | VGRGGGYFDY -> nd (0 of 3 replicates; controls 4 of 9)
- GFTFDDYAMH | TISWNSGSIGYAASVK | VQRGGGYFDY -> 6.0 µM (1 of 3 replicates; controls 2 of 9)
- GFTFDDLAMH | GISWNSGSIGYANSVK | VGRGGGYFDY -> 57 µM (2 of 3 replicates; controls 2 of 9)
- GFTFYDYAMH | GCSWNSGSIGYAPSVK | VGRGGGYFDY -> 41 µM (3 of 3 replicates; controls 2 of 9)
- GFTFDDYAMH | GISWNSGSNGYGSSVK | VGRGGGYFDY -> 27 µM (3 of 3 replicates; controls 8 of 9)
- GFTFDDYAMH | GISWNSGSIGPAYSVK | VGRGGGYFDY -> 5.1 µM (1 of 3 replicates; controls 0 of 9)
- GFTFDDYAMH | GISWNSGSIGYAPSVK | VGRGGGLMDY -> 110 µM (2 of 3 replicates; controls 6 of 9)
- GFTFDDYAMH | GISWNSGSIGYAWSVK | VGRGGGYFDG -> 9.9 µM (2 of 3 replicates; controls 0 of 9)
- GFTFDDYAMH | GISWNSGSIGYAGHVK | VGRGGGYLDY -> 9.5 µM (2 of 3 replicates; controls 0 of 9)
- GFTFDDYAMH | GISWNSGSIGYAISVK | VGRGGHYFDY -> nd (0 of 3 replicates; controls 0 of 9)
- GFTFDDYAMH | GISSNSGSIGYAQSVK | VGRGGGYFQY -> 450 nM (2 of 3 replicates; controls 0 of 9)

Again, the first 3 entries without any signal:

{"CDR-H1": "GFTFDDYVMH", "CDR-H2": "GISMNSGSIGYAMSVK", "CDR-H3": "VGRGGGYFDY", "apparent Kd": "nd", "detected": "0/3", "empty controls": "0/9"}
{"CDR-H1": "GFTFDDYAMH", "CDR-H2": "GISWNSGSIGYAISVK", "CDR-H3": "VTRGGGKFDY", "apparent Kd": "nd", "detected": "0/3", "empty controls": "0/9"}
{"CDR-H1": "GFTFDDYAMH", "CDR-H2": "GISWNSGSIGDARSVK", "CDR-H3": "VGRGGGYFRY", "apparent Kd": "nd", "detected": "0/3", "empty controls": "0/9"}